Values of other authors in article PMC13062086, “A sstR2-targeted radiohybrid theranostic agent for PET imaging and β^- therapy with excellent preclinical performance” (npj Imaging, 2026).

The chains behind the UniProt entries cited, without tags or fusion partners. Residues count along the entry.
UniProt P02768, 25-609: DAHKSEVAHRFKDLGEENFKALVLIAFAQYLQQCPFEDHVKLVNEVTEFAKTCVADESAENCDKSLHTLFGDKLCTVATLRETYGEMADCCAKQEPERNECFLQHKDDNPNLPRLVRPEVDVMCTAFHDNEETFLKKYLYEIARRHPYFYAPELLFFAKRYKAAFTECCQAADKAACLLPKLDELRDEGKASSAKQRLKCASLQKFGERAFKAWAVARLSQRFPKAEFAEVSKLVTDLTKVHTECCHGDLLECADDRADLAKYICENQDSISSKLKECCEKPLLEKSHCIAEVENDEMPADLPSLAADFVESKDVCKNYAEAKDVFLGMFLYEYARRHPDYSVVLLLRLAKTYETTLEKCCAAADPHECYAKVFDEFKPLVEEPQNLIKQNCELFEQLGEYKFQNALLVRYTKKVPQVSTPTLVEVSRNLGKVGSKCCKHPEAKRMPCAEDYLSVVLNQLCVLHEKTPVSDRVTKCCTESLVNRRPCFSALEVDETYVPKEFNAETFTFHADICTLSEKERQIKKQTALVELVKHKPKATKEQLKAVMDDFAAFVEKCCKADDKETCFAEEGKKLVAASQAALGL

Molecular target: T1, human serum albumin (HSA) (Homo sapiens, UniProt P02768)
T1 construct: purchased Daicel, Tokyo, Japan Chiralpak HSA column (50 × 3 mm, 5 μm, H13 h-2433)
Parameters: method as in earlier work
Details: literature-known values for calibration curve ref 2-3 (SI; main text 45, 46)

**Q.** With `NC(=O)N1c2ccccc2C=Cc2ccccc21` [Carbamazepine] as the compound, how does the HSA-binding read?
**A.** Its HSA-binding is 75.00%.
